One-dose inflammasome screen (PubChem AID 2061109, Seoul National University)
system: mouse macrophages from bone marrow, LPS + nigericin (NLRP3)
compound dose: 5 µM
value: % inhibition of cell death (propidium iodide), 0 = stimulated, 100 = untreated, floor at 0
*: called active, above 70% Part of the library is listed.

{"SMILES": "COc1ccc(CN(CCN(C)C)c2ncccn2)cc1", "inhibition [%]": "74.7*"}
{"SMILES": "CC(C)(C)C1CCC(N(Cc2ccc(C(=O)NCCC(=O)O)cc2)C(=O)Nc2ccc(OC(F)(F)F)cc2)CC1", "inhibition [%]": "40.1"}
{"SMILES": "CC1(C)N=C(C2CCCCC2)c2ccc(C#N)cc2N(c2ccc(NCCNC3CCOCC3)cc2)C1=O", "inhibition [%]": "0.0"}
{"SMILES": "NC(N)=Nc1nc(CSCCN=CNS(=O)(=O)c2ccc(Br)cc2)cs1", "inhibition [%]": "0.0"}
{"SMILES": "CCCCN1CCCCC1C(=O)Nc1c(C)cccc1C", "inhibition [%]": "53.8"}
{"SMILES": "CNC(=O)c1ccccc1Sc1ccc2c(/C=C/c3ccccn3)n[nH]c2c1", "inhibition [%]": "42.6"}
{"SMILES": "Nc1ccc(C(=O)Nc2ccc(C(F)(F)F)cc2)cc1", "inhibition [%]": "29.2"}
{"SMILES": "Cc1nc2c(O[C@H]3CCOc4cc(F)cc(F)c43)cc(C(=O)N(C)C)cc2[nH]1", "inhibition [%]": "0.0"}
{"SMILES": "O=C(c1ccc(C(=O)N2CCC(N3CCCCC3)CC2)cc1)N1CCC(N2CCCCC2)CC1", "inhibition [%]": "63.3"}
{"SMILES": "O=C1C[C@@H](c2ccc(O)cc2)Oc2cc(O[C@@H]3O[C@H](CO)[C@@H](O)[C@H](O)[C@H]3O)cc(O)c21", "inhibition [%]": "51.0"}
{"SMILES": "O=C1CN(c2cn[nH]c(=O)c2Cl)CCN1Cc1ccccc1C(F)(F)F", "inhibition [%]": "63.6"}
{"SMILES": "COCCOc1cc2nc[nH]c(=O)c2cc1OCCOC", "inhibition [%]": "19.6"}
{"SMILES": "Cc1cccc(C#Cc2ccccc2)n1.Cl", "inhibition [%]": "31.2"}
{"SMILES": "CC(=O)O[C@H]1[C@H]2O[C@]23[C@@H]2CC[C@]4(O)C[C@@H](O)CC[C@]4(C)[C@H]2CC[C@]3(C)[C@H]1c1ccc(=O)oc1", "inhibition [%]": "0.8"}
{"SMILES": "CCCCCCCCCCC(C)(C)C(=O)Nc1c(OC)cc(OC)cc1OC", "inhibition [%]": "8.7"}
{"SMILES": "COc1ccc(OC)c(-c2ccc(NC(=O)c3ccncc3F)cc2)c1", "inhibition [%]": "0.0"}
{"SMILES": "C#CCNC(=O)C(=O)c1c(C)c(C(=O)Nc2ccc(F)c(F)c2)n(C)c1C", "inhibition [%]": "0.0"}
{"SMILES": "Cl.O=C1N(CC2CCCCN2)CCN1c1ccccc1", "inhibition [%]": "12.3"}
{"SMILES": "FC(F)(c1ccc2ncccc2c1)c1nnc2ccc(-c3ccncc3)nn12", "inhibition [%]": "44.8"}
{"SMILES": "CCC(=O)c1ccc2c(c1)N(CCCN(C)C)c1ccccc1S2.Cl", "inhibition [%]": "7.2"}
{"SMILES": "O=C(Nc1ccccc1)Nc1ccc(-c2ccc(C(=O)[C@@H]3CCC[C@H]3C(=O)O)cc2)cc1", "inhibition [%]": "1.4"}
{"SMILES": "CCCCCCCCCCCCCCCc1cccc(O)c1C(=O)O", "inhibition [%]": "10.1"}
{"SMILES": "CCCCc1nc(Cl)c(CO)n1Cc1ccc(-c2ccccc2-c2nn[nH]n2)cc1", "inhibition [%]": "0.0"}
{"SMILES": "Nc1ccc(/C=C/C(=O)NCc2cc3cc(-c4ccc(C(=O)N5CCC(F)(F)CC5)cc4)cc(-c4ccc(F)cc4)c3o2)cn1", "inhibition [%]": "59.1"}
{"SMILES": "Cl.O=C(NCCCNc1nc(Nc2cccc(CN3CCOCC3)c2)ncc1C1CC1)C1CCC1", "inhibition [%]": "61.9"}
{"SMILES": "COc1ccc2cccc(CCNC(C)=O)c2c1.Cl", "inhibition [%]": "4.0"}
{"SMILES": "COCCC(=O)N1C[C@@H]2C[C@H](C1)c1ccc(NC(=O)c3ccc(-c4ccccc4)cc3)c(=O)n1C2", "inhibition [%]": "0.0"}
{"SMILES": "COC(=O)c1ccc(NCc2cc(O)ccc2O)cc1", "inhibition [%]": "51.1"}
{"SMILES": "CC(C)CNc1ccnc(NCc2csc(-c3ccccc3)n2)n1", "inhibition [%]": "46.9"}
{"SMILES": "N#Cc1ccc2ncnc(NC3CCC(N4CCOCC4)CC3)c2c1", "inhibition [%]": "27.7"}
{"SMILES": "COc1cc2c(cc1N1C[C@@H](C)N[C@@H](C)C1)N(C(=O)c1ccc(-c3ccc(-c4noc(C)n4)cc3C)cc1)CC2.Cl", "inhibition [%]": "0.0"}
{"SMILES": "CCCC(=O)N1CCCN(c2nc(N)c3cc(OC)c(OC)cc3n2)CC1.Cl", "inhibition [%]": "8.9"}
{"SMILES": "CCC(=NNC(=O)c1ccnc(NCCCN2CCOCC2)c1)c1ccc(Cl)cc1O", "inhibition [%]": "0.0"}
{"SMILES": "NC(CCCP(=O)(O)O)C(=O)O", "inhibition [%]": "25.9"}
{"SMILES": "Cc1ccc2c(c1)C(=O)C1(O)CCN(c3ccccc3)C1=N2", "inhibition [%]": "11.9"}
{"SMILES": "COc1ccc(OC)c(-c2cc(=O)[nH]c(=S)n2CC(N)=O)c1", "inhibition [%]": "0.0"}
{"SMILES": "O=S(=O)(NC1CCC(c2cc(F)ccc2F)(S(=O)(=O)c2ccc(Cl)cc2)CC1)C(F)(F)F", "inhibition [%]": "0.0"}
{"SMILES": "Cl.Cl.Fc1ccc(C(OCCN2CCN(CCCc3ccccc3)CC2)c2ccc(F)cc2)cc1", "inhibition [%]": "0.0"}
{"SMILES": "CS(=O)(=O)O.CS(=O)(=O)O.Cc1nn(-c2ccnc(Nc3ccc4c(c3)c(C(=O)C3CC3)cn4C)n2)cc1CN1C[C@H](O)CO1", "inhibition [%]": "77.1*"}
{"SMILES": "CNCCN1CCC(c2ccc3[nH]c(-c4ccc(OC)c(OC)c4)c(C(C)C)c3c2)CC1", "inhibition [%]": "0.0"}
{"SMILES": "Nc1ccccc1COc1ccc(Oc2ccccc2)cc1", "inhibition [%]": "0.0"}
{"SMILES": "CC(=O)N[C@H]1[C@@H](OC(C)C)O[C@H](COC(C)=O)[C@@H](OC(C)=O)[C@@H]1OC(C)=O", "inhibition [%]": "68.1"}
{"SMILES": "CCN1C(=O)N(c2c(F)c(OC)cc(OC)c2F)Cc2cnc3[nH]c(CN4CCOCC4)cc3c21", "inhibition [%]": "69.1"}
{"SMILES": "O=C(N/N=C/c1c(O)ccc2ccccc12)c1ccccc1O", "inhibition [%]": "0.0"}
{"SMILES": "C=CCc1ccc(O)c(-c2ccc(O)c(CC=C)c2)c1", "inhibition [%]": "0.0"}
{"SMILES": "CN1CCN(C(=O)CN[C@@H]2C[C@H]2c2ccc(OCc3ccccc3)cc2)CC1.Cl.Cl", "inhibition [%]": "0.0"}
{"SMILES": "CN1CCc2cc(Nc3ncc(C(F)(F)F)c(NCc4ccn[nH]4)n3)ccc2C1", "inhibition [%]": "0.0"}
{"SMILES": "S=C([S-])N1CCCC1.[NH4+]", "inhibition [%]": "47.9"}
{"SMILES": "O=C(Nc1nc(-c2ccc(O)c(O)c2)c(-c2ccccc2)s1)c1ccc(O)c(O)c1", "inhibition [%]": "0.0"}
{"SMILES": "CCOc1nc2ccccc2n1Cc1ccc(NC(=O)N2CC(c3cccnc3)C2)cc1", "inhibition [%]": "8.4"}
{"SMILES": "Fc1cc(F)c2c(c1)C[C@@H](n1c(CCNCc3ccccc3)c[nH]c1=S)CO2", "inhibition [%]": "37.9"}
{"SMILES": "Cn1ccc(-c2cc(Cl)c(Cl)c3[nH]c4c(c23)CN(C(=O)CO)CC4)n1", "inhibition [%]": "0.0"}
{"SMILES": "O=C(/C=C\\n1cnc(-c2cc(C(F)(F)F)cc(C(F)(F)F)c2)n1)NNc1ccccn1", "inhibition [%]": "0.0"}
{"SMILES": "Cc1nn(CC(F)(F)F)cc1Nc1ncc(Br)c(NCc2ccc(S(N)(=O)=O)cc2)n1", "inhibition [%]": "0.0"}
{"SMILES": "Cc1cc(O)c(-c2cc(O)c(C)cc2O)cc1O", "inhibition [%]": "0.0"}
{"SMILES": "COc1nccnc1NS(=O)(=O)c1cccc(Cl)c1Cl", "inhibition [%]": "78.6*"}
{"SMILES": "O=c1[nH]cc(F)c(=O)[nH]1", "inhibition [%]": "0.0"}
{"SMILES": "CC(=O)N1CCN(c2ccc(OC[C@H]3CO[C@](Cn4ccnc4)(c4ccc(Cl)cc4Cl)O3)cc2)CC1", "inhibition [%]": "0.0"}
{"SMILES": "C[C@](O)(Cn1ccc2cc(F)ccc21)C(=O)Nc1ccc(C#N)c(C(F)(F)F)c1", "inhibition [%]": "0.0"}
{"SMILES": "CC(C)Nc1cc(-c2c[nH]c(C(=O)N[C@H](CO)c3cccc(Cl)c3)c2)c(Cl)cn1", "inhibition [%]": "66.4"}
{"SMILES": "COc1ccc2cccc(CCNC(C)=O)c2c1", "inhibition [%]": "0.0"}
{"SMILES": "c1ccc(-c2nn3c(c2-c2ccnc4cc(OCCN5CCOCC5)ccc24)CCC3)nc1", "inhibition [%]": "63.0"}
{"SMILES": "COc1cc(-c2c(C)cc(O)cc2O[C@@H]2O[C@H](CO)[C@@H](O)[C@H](O)[C@H]2O)oc(=O)c1", "inhibition [%]": "50.7"}
{"SMILES": "Nc1cncc(-c2cn3ccnc3c(Nc3ccc(N4CCN(C5COC5)CC4)cc3)n2)n1", "inhibition [%]": "15.3"}
{"SMILES": "CC(C)=CCC/C(C)=C/CC/C(C)=C/CC/C(C)=C/CO", "inhibition [%]": "0.0"}
{"SMILES": "CCOC(=O)[C@H](C)C[C@@H](Cc1ccc(-c2ccccc2)cc1)NC(=O)CCC(=O)[O-].CCOC(=O)[C@H](C)C[C@@H](Cc1ccc(-c2ccccc2)cc1)NC(=O)CCC(=O)[O-].[Ca+2]", "inhibition [%]": "65.1"}
{"SMILES": "CCC[C@@H]([C@@H](CC(C)C)C(=O)N[C@@H](CCCCNC(=O)OCc1ccccc1)C(=O)Nc1nccs1)N(O)C=O", "inhibition [%]": "0.0"}
{"SMILES": "N#CCCN(C(=O)CCl)c1ccc2c(c1)OCCO2", "inhibition [%]": "0.0"}
{"SMILES": "CC[C@@]1(O)C(=O)OCc2c1cc1n(c2=O)Cc2cc3c(CN(C)C)c(O)ccc3nc2-1", "inhibition [%]": "0.0"}
{"SMILES": "Cc1cc(C)c(-c2n[nH]c(C)c2C)cc1C(=O)N1CC(c2ccc(C#N)cc2)C1", "inhibition [%]": "0.0"}
{"SMILES": "[Cl-].[Cs+]", "inhibition [%]": "62.9"}
{"SMILES": "O=C(NCC1(N2CCN(c3ccccc3)CC2)CCOCC1)c1cccnc1Sc1ccccc1", "inhibition [%]": "0.0"}
{"SMILES": "C[C@@H]1COCCN1c1cc(-c2ccnn2C)c2ccnc(-c3ccn[nH]3)c2n1.Cl", "inhibition [%]": "24.6"}

The first 9 compounds once more:

SMILES,inhibition [%]
COc1ccc(CN(CCN(C)C)c2ncccn2)cc1,74.7*
CC(C)(C)C1CCC(N(Cc2ccc(C(=O)NCCC(=O)O)cc2)C(=O)Nc2ccc(OC(F)(F)F)cc2)CC1,40.1
CC1(C)N=C(C2CCCCC2)c2ccc(C#N)cc2N(c2ccc(NCCNC3CCOCC3)cc2)C1=O,0.0
NC(N)=Nc1nc(CSCCN=CNS(=O)(=O)c2ccc(Br)cc2)cs1,0.0
CCCCN1CCCCC1C(=O)Nc1c(C)cccc1C,53.8
CNC(=O)c1ccccc1Sc1ccc2c(/C=C/c3ccccn3)n[nH]c2c1,42.6
Nc1ccc(C(=O)Nc2ccc(C(F)(F)F)cc2)cc1,29.2
Cc1nc2c(O[C@H]3CCOc4cc(F)cc(F)c43)cc(C(=O)N(C)C)cc2[nH]1,0.0
O=C(c1ccc(C(=O)N2CCC(N3CCCCC3)CC2)cc1)N1CCC(N2CCCCC2)CC1,63.3